# Values quoted from earlier work in US20140171466A1, “PAIN MANAGEMENT IN SICKLE CELL ANEMIA” (priority 2012, published 2014).
# System: mu-, κ-, δ-, and nociceptin-opioid receptors
structure (smiles),measurement,value
"CO[C@]12CC[C@@]3(C[C@@H]1C(C)(O)C(C)(C)C)[C@H]1Cc4ccc(O)c5c4[C@@]3(CCN1CC1CC1)C2O5 (stereo partly drawn) [Compound 14, [5α,7α(S)]-17-(cyclopropylmethyl)-α-(1,1-dimethylethyl)-4,5-epoxy-18,19-dihydro-3-hydroxy-6-methoxy-α-methyl-6,14-ethenomorphinan-7-methanol, hydrochloride]",affinity to opioid receptor subtypes,high affinity

# Structures can show the parent of a compound that is named as a salt.
